The results in this text go back to paper doi:10.1101/767673v1 (bioRxiv, 2019).

Protein sequences, listed by entry. Tags and fused reporters are not part of them. Lines headed by an entry give the natural chain unless they say otherwise; changes in a name come on top.
UniProt Q00987: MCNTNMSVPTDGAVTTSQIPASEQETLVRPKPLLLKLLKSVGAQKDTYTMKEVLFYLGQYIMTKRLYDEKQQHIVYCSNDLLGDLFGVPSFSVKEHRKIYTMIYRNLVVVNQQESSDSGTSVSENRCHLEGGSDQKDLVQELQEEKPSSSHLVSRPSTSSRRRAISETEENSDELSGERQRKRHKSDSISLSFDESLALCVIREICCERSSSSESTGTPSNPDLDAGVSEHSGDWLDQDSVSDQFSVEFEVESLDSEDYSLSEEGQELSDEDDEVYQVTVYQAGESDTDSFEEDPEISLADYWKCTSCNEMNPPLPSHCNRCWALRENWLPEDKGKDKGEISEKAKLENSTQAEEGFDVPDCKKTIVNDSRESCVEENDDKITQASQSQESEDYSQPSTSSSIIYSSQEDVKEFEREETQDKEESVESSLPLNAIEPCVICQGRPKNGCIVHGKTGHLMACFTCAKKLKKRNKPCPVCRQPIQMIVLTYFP

The structures appear in SMILES notation.

This assay concerns the target human Mdm2 protein (amino acids 1–125) (Homo sapiens, UniProt Q00987). Briefly: Isothermal titration calorimetry. Type of assay: binding. To be noted: PBS pH 7.2, 3% DMSO, 0.001% Tween-20, duplicates.

Regarding `CC(C)C[C@H]1NC(=O)[C@@H](CCCCN)NC(=O)[C@@H](CCC(=O)O)NC(=O)[C@@H](Cc2ccc(C(F)(F)F)cc2)NC(=O)[C@@H](CC(N)=O)NC(=O)[C@@](C)(NC(=O)[C@@H](Cc2ccc(O)cc2)NC(=O)[C@@H](Cc2c[nH]c3cc(F)ccc23)NC(=O)[C@@H](C)NC(=O)[C@H](N)[C@H](C)O)CCCCCC/C=C\CCC[C@](C)(C(N)=O)NC(=O)[C@@H](CC(C)C)NC1=O` [^dPMI-δ(5-12)], the “ITC enthalpy of binding (ΔH) to Mdm2” value is -8.25 kcal/mol.
